Data on nine compounds can be found in PubChem BioAssay AID1326 (NMMLSC, 2008).

Amino acid sequences for entries named in this document (tags omitted).
UniProt P08183, whole entry: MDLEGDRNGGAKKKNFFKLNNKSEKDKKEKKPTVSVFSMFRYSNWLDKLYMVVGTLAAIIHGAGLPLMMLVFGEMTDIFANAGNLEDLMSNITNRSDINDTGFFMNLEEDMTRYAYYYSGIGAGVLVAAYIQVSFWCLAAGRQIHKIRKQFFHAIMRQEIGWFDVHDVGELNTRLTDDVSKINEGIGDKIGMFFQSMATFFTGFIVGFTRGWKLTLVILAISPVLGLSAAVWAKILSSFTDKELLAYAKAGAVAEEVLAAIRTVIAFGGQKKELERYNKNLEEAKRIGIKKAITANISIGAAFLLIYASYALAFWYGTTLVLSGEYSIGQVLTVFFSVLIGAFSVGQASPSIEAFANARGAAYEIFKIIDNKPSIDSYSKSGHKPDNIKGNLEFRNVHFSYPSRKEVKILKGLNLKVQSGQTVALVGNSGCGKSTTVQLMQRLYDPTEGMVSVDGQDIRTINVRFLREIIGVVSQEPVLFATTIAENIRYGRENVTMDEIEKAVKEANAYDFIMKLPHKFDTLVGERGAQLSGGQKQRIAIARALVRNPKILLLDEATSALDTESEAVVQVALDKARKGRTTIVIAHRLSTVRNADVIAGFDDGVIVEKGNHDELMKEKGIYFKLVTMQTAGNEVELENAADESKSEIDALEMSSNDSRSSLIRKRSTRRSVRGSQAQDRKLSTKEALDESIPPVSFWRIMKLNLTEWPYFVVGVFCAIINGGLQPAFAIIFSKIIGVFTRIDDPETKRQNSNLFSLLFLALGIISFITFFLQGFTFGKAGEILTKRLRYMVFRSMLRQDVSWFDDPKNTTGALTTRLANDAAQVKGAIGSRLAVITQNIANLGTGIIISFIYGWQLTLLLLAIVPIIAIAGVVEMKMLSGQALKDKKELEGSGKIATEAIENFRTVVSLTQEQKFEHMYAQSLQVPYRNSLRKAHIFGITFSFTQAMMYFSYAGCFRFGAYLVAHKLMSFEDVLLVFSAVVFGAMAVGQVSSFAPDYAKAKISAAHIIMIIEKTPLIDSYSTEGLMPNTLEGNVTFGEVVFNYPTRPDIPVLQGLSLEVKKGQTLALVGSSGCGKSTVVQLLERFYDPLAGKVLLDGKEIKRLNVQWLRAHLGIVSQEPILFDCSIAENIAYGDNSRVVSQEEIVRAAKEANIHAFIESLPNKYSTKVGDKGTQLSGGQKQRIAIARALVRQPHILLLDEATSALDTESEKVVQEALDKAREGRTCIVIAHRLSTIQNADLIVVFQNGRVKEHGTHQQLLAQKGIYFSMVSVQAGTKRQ

Only a part is listed here, and it is no random draw. Some results for these compounds are left out of this collection, so the calls shown say nothing about other tests. Calls of active or inactive are those of the source. Rule as the data show it: active = inhibition above about 40%; inactive = the rest.

By inhibition is commonly meant the change of the read-out against control, counted positive when it falls.

The target of this assay is ATP-dependent translocase ABCB1 (Homo sapiens) (UniProt P08183). The assay is described as follows: ABCB1 efflux pump inhibitors, primary screen, cell-based, multiplex, flow cytometry, ABCG2 counter-screen (AID 1326).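 Also: 0% = vehicle and 100% = reference inhibitor; higher value means more JC-1 retained so stronger ABCB1 efflux block.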 The conditions noted are these: CCRF-Adr cells, JC-1 efflux, at 6.6 µM, stronger effect = higher value. A general note: A flow cytometer gives signals particle by particle.
For the compound `O=C(NCC1(N2CCCCC2)CCCCC1)c1cc([N+](=O)[O-])ccc1Cl`, the inhibition is inactive: 1.58%.

For the compound `CC(C)N1C(=O)CC2(CCN(CCOC(=O)C(O)(c3ccccc3)c3ccccc3)CC2)C1=O`, the inhibition is inactive: 0.23%.

Take `CN(C)C1CCCC1OC(=O)C(O)(c1ccccc1)c1ccccc1` (centres undefined): the inhibition is inactive: 1.16%.

Regarding `Cc1ccccc1C(=O)NCC1(N2CCCCC2)CCCCC1`, the inhibition was inactive: 0.16%.

With `CCN1CCCC(OC(=O)C2(O)c3ccccc3C=Cc3ccccc32)C1` (centres undefined), the inhibition is inactive: 0.18%.

On to `C=CCN1CCN(CCOC(=O)C(O)(c2ccccc2)c2ccccc2)CC1`, for which the inhibition was inactive: 0.38%.

On to `COc1cccc(C(=O)NCC2(N3CCCCC3)CCCCC2)c1`, for which the inhibition was inactive: -0.03%.

As for `O=C(OC1CN2CCC1CC2)C(CO)(c1ccccc1)c1ccccc1` (centres undefined), the inhibition is inactive: 0.48%.

Consider `CN(C)c1cccc(C(=O)NCC2(N(C)C)CCCCC2)c1`, for which the inhibition is inactive: 0.75%.
